Laboratory results from ChEMBL document CHEMBL1135758, “Toward a pharmacophore for drugs inducing the long QT syndrome: insights from a CoMFA study of HERG K(+) channel blockers” (J Med Chem, 2002).

Amino acid sequences for entries named in this document (tags omitted). A change or cut given only in a name is not applied to a line headed by its entry.
UniProt Q12809: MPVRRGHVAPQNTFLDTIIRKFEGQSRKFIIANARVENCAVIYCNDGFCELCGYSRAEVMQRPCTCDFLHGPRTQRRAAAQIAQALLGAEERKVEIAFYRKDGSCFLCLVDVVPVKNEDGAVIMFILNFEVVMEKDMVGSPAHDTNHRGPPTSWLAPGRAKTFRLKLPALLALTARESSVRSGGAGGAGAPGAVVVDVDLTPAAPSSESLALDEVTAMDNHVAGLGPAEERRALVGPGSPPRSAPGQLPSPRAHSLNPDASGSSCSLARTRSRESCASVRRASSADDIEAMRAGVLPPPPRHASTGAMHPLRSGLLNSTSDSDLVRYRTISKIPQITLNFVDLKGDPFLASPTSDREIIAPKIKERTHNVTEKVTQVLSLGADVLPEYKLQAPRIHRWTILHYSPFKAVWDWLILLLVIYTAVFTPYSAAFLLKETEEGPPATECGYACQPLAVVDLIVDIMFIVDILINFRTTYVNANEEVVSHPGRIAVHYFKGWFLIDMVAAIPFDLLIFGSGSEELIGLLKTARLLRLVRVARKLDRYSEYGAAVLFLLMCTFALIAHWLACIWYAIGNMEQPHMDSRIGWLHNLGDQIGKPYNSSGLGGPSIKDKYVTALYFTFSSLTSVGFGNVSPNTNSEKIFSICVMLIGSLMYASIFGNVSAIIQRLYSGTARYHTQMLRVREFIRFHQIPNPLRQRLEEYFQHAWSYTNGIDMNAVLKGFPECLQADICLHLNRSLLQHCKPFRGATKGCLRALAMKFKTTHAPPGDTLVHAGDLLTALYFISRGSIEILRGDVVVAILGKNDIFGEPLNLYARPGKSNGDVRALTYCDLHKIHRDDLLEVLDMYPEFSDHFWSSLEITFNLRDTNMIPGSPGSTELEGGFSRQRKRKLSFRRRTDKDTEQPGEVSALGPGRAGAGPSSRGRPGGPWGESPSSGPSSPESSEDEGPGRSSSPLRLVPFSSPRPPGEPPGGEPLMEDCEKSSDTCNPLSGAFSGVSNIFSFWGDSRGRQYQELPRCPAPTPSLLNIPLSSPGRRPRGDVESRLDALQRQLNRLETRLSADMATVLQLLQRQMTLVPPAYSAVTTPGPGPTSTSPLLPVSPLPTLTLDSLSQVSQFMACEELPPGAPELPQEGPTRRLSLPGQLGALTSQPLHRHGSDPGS

Legend:
[1] = molecular target: T1, Voltage-gated inwardly rectifying potassium channel KCNH2 (Homo sapiens, UniProt Q12809); assay: K+ channel blocking activity in COS-7 African green monkey kidney derived cells expressing HERG Kv11.1; assay type: functional, cell-based
[2] = molecular target: T1, Voltage-gated inwardly rectifying potassium channel KCNH2

SMILES | IC50 [1] | IC50 [2]
CC(C)COCC(CN(Cc1ccccc1)c1ccccc1)N1CCCC1 (stereo not drawn) [BEPRIDIL] | 550 nM | –
C1CCC(C(CC2CCCCN2)C2CCCCC2)CC1 (stereo not drawn) [PERHEXILINE] | – | 7800 nM
O=C1Cc2cc(CCN3CCN(c4nsc5ccccc45)CC3)c(Cl)cc2N1 [ZIPRASIDONE] | – | 152 nM
